Yeast mating assay B: variants of the scFv Ab-14

Reference: Li et al. 2023, doi:10.1038/s41467-023-39022-2. File: FLAb, binding data.

Target: peptide PDVDLGDISGINAS, taken from heptad repeat 2 (HR2) of SARS-CoV-2 spike.

Each scFv is VH, the linker GGGGSGGGGSGGGGS, VL, as in the parent Ab-14, and differs from it in the CDRs of the light chain only.
VH: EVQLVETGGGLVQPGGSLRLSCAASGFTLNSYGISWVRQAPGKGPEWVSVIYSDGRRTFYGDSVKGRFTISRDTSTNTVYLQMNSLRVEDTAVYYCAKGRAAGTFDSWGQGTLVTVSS
VL: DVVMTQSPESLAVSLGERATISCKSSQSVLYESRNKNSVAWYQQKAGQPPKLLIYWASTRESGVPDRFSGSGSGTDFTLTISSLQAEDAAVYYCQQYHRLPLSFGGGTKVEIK

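This is the validation round: designs drawn from the data on random variants, tested in the same kind of assay. Several design methods are mixed in this list. AlphaSeq pools MATa yeast showing the antibodies with MATalpha yeast showing the peptide. Mating (16 h, 30 °C) was followed by selection of diploids and sequencing of their barcodes. The ratio of observed to expected reads was calibrated, replicate by replicate, on BCL2-family standards whose Kd was known from biolayer interferometry. Mating was done six times.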

Each variant is given by its three light chain CDRs, as the data file delimits them; those of the parent are KSSQSVLYESRNKNSVA, WASTRES, QQYHRLPLS.
The read-out is the apparent dissociation constant on a log10 scale (nM): the lower, the stronger.
Replicates are averaged; those with no signal do not enter the mean.
"nd" means that the variant was in the library but no mating with the target was seen in any replicate; the authors take this as a sign of poor binding, and no number exists.
Values of this round are not directly comparable with the first-round values of the same sequences.
The parent sequence was in this pool as ten entries: three were never detected, three once, and four in most replicates, with averages from 0.34 to 2.37.
The authors averaged sequences with at least three values out of six and counted those with two or fewer as poor binders.
As a blank, each scFv also met three strains without target: over all light chain designs, 4% of these pairings were detected, typically at 2.64 and seldom below 1.59. Also given: how often the same scFv was detected with the empty control strains.

With KLQFSSGMLQRNKNSVA, SASTRES, QQYHRLPLS the result was 0.11 (6 of 6 replicates; controls 1 of 18).
With KLSLSMSYSHEGRRHIA, NGSNRCI, QQYHRLPLI the result was 1.17 (6 of 6 replicates; controls 1 of 18).
With KLEQSVWYESRNKNSVA, NASTRES, QQYHRLPLS the result was 0.23 (6 of 6 replicates; controls 1 of 18).
With KSSLSVLFESRNKNSVA, DASTRMS, QQYHRLPLS the result was 1.10 (6 of 6 replicates; controls 2 of 18).
With KLSQVTGHMQVEKNNVA, EMETRGN, QQYDRLPLS the result was 0.71 (6 of 6 replicates; controls 0 of 18).
With KLYQSMGYLSHNKQSIA, DMSRREN, QQYHRLPLS the result was 0.00 (6 of 6 replicates; controls 2 of 18).
With KVSQSTLYESRNKNSVA, NASVRSS, QQYHRLPLS the result was 0.54 (6 of 6 replicates; controls 0 of 18).
With KLSQSVLYESRNSNSVA, NASTRSS, QQYHRLPLS the result was 1.03 (1 of 6 replicates; controls 0 of 18).
With KLRQVTGYESYLKNSVA, QTSTRAE, QDYNRLPLS the result was 0.29 (6 of 6 replicates; controls 2 of 18).
With SISGFMKSLSAHINNVA, DMTNRED, QQYDRLPLM the result was 0.18 (6 of 6 replicates; controls 0 of 18).
With HISQSAGVTSRNKNSVA, ENSTRED, QQYDRLPLS the result was 3.13 (2 of 6 replicates; controls 0 of 18).
With KLPGSNLYESRNLNSVA, KASTRLQ, QQYHRLPLS the result was 0.20 (6 of 6 replicates; controls 0 of 18).
With HVMHEQLDYKNYENNIA, HESQRLY, QQYSQLPLS the result was 1.17 (6 of 6 replicates; controls 1 of 18).
With KSSQSVLAEQLNKNSVA, WGSTRES, QQYHTLPLS the result was 0.53 (6 of 6 replicates; controls 1 of 18).
With TISQSMVMENQFKNSVA, QASTRES, QCYDRLPLS the result was 1.86 (6 of 6 replicates; controls 1 of 18).
With QLSMNLEIYDQEQWAVA, MGEMRTE, QQYHKLPLS the result was nd (0 of 6 replicates; controls 1 of 18).
With KISGYLNKESKNANSVA, EMVNRES, QQYDRLPLS the result was 1.05 (6 of 6 replicates; controls 1 of 18).
With KLSQSVMYESRNKNSVA, EASTREV, QQYHRLPLS the result was -0.07 (6 of 6 replicates; controls 0 of 18).
With KSSQSVLYEERNDISVA, WASLREG, QQYQRLPLS the result was nd (0 of 6 replicates; controls 0 of 18).
With KLSQSVLYESRNKNSVA, EASTRES, QNYHRLPLS the result was -0.01 (6 of 6 replicates; controls 1 of 18).
With KSGQSVLYESSNKNSVA, WASTRES, QQIHRLPLS the result was nd (0 of 6 replicates; controls 0 of 18).
With KSSQSVLYESRNKNSVA, WSSTRES, QQYHRLSLS the result was nd (0 of 6 replicates; controls 0 of 18).
With TISQSVLMTGLNRNSVA, QASERIE, QQYDRLPLS the result was 0.78 (6 of 6 replicates; controls 2 of 18).
With KMSQSDLMEMRNMNSVA, NASTRQM, QQYHRLPLS the result was 0.55 (6 of 6 replicates; controls 1 of 18).
With KSSQRVLYESRNKNSVA, KASTRES, QQYRRLPLS the result was nd (0 of 6 replicates; controls 0 of 18).
With KVSQSVWYESRNKNSVA, DASTRES, QQYHRLPLS the result was -0.28 (6 of 6 replicates; controls 0 of 18).
With KLSATYRYESQNKNSIA, EMSTREE, QCYHRLPLS the result was 1.41 (6 of 6 replicates; controls 0 of 18).
With KLRWPCTTDMNRMSSIA, ESEVAND, QQYAHLPLS the result was 2.46 (4 of 6 replicates; controls 0 of 18).
With HIELGTWGVQKFDSSVA, HASQRQE, QQYDQLPLT the result was 0.76 (6 of 6 replicates; controls 2 of 18).
With KSSQSVLYQSRNKNSVA, WASTRES, QQYHRLPLS the result was nd (0 of 6 replicates; controls 0 of 18).
With KSSQSVLYESRNDNSVA, WASTRES, FQYHRLPLS the result was nd (0 of 6 replicates; controls 1 of 18).
With TLMYAGEQEGEEKKSVA, NAIIKNE, QQYVRLPLA the result was 0.57 (6 of 6 replicates; controls 1 of 18).
With KMHTLMYTANIGENSVA, DANVHVD, QQYFRLPLS the result was 0.93 (6 of 6 replicates; controls 1 of 18).
With KSSQEVYYQSRNKNSVA, WASTRES, QQYHRLPLS the result was 1.58 (1 of 6 replicates; controls 0 of 18).
With KSQNSSLYESNNKNSVA, WASTRES, QQYHILPLS the result was nd (0 of 6 replicates; controls 1 of 18).
With KSSQSALYESFNKNSVA, WASTRES, QQYHYLPLS the result was nd (0 of 6 replicates; controls 1 of 18).
With KLSMTSEMEHKNRNSVA, ELVTRMN, QQYNRLPLS the result was 0.54 (6 of 6 replicates; controls 2 of 18).

Repeated from above, the 4 best binders with a signal in all replicates:

{"CDR-L1": "KVSQSVWYESRNKNSVA", "CDR-L2": "DASTRES", "CDR-L3": "QQYHRLPLS", "mean log10 Kd (nM)": "-0.28", "detected": "6/6", "signal with controls": "0/18"}
{"CDR-L1": "KLSQSVMYESRNKNSVA", "CDR-L2": "EASTREV", "CDR-L3": "QQYHRLPLS", "mean log10 Kd (nM)": "-0.07", "detected": "6/6", "signal with controls": "0/18"}
{"CDR-L1": "KLSQSVLYESRNKNSVA", "CDR-L2": "EASTRES", "CDR-L3": "QNYHRLPLS", "mean log10 Kd (nM)": "-0.01", "detected": "6/6", "signal with controls": "1/18"}
{"CDR-L1": "KLYQSMGYLSHNKQSIA", "CDR-L2": "DMSRREN", "CDR-L3": "QQYHRLPLS", "mean log10 Kd (nM)": "0.00", "detected": "6/6", "signal with controls": "2/18"}